In ChEMBL document CHEMBL4834437, “Improvement of Oral Bioavailability of Pyrazolo-Pyridone Inhibitors of the Interaction of DCN1/2 and UBE2M” (J Med Chem, 2021):
Converted amounts (≈) assume the structure as drawn.

Experiment: Kinetic solubility of the compound in PBS buffer at pH 7.4 incubated for 18 hrs by LC-MS analysis
Type: physicochemical
Settings: read-out: Kinetic_solubility

Compound	solubility kinetic at 18 h [µM]
CCN1C(=O)[C@@H](NC(=O)c2cccc(C(F)(F)F)c2)[C@@H](c2ccc(F)nc2)c2c(C)nn(-c3ccccc3)c21	16.6 (≈ 8.92 µg/mL)
CCN1C(=O)[C@@H](NC(=O)c2cccc(C)c2)[C@@H](c2ccc(F)cc2)c2c(C)nn(-c3ccccc3)c21 (relative stereo)	16.6 (≈ 8.01 µg/mL)
